{
  "source": "patent US20070237728A1",
  "about": "“Method and Composition for Dental Bleaching” (HIGH TECH LASER, priority 2000, published 2007)",
  "origin": "cited, not measured here",
  "test_system": "teeth",
  "conditions": "tetracycline staining of teeth",
  "data": [
    {"substance": "Tetracycline chloride", "values": [
      {"measurement": "type of teeth discolouration caused", "result": "grey-brown discolouration"}
    ]}
  ]
}
